Results on one molecule are retold here after patent US20040077080A1, “Compositions and methods for induction of proteins involved in xenobiotic metabolism” (priority 2000, published 2004).

The test system of the series is MDR1 P-glycoprotein mRNA. Kind of series: Northern blot of MDR1 P-glycoprotein expression (Example VI). The following applies: rifampicin 10 micromoles per liter, 48 hours.

Take `CO[C@H]1/C=C/O[C@@]2(C)Oc3c(C)c(O)c4c(O)c(c(/C=N/N5CCN(C)CC5)c(O)c4c3C2=O)NC(=O)/C(C)=C\C=C\[C@H](C)[C@H](O)[C@@H](C)[C@@H](O)[C@@H](C)[C@H](OC(C)=O)[C@@H]1C` [rifampicin]: the “MDR1 P-glycoprotein expression in Caco-PXR stable cells (in words)” value was “MDR1 P-glycoprotein activation”.
